Experimental data as given in publication PMC12304827 (British Journal of Clinical Pharmacology, 2025).
Where “and” joins values, the source holds several entries; their conditions need not be identical. Identical values can stand only once.

Columns and labels:
[1] = OC study 2: EE and LN PK with/without ritlecitinib 50 mg QD
[2] = OC study 1: EE and LN PK with/without ritlecitinib 200 mg QD
[3] = OC with ritlecitinib 50 mg QD × 13 days vs OC alone
[4] = OC with ritlecitinib 200 mg QD × 11 days vs OC alone

For C#C[C@]1(O)CC[C@H]2[C@@H]3CCC4=CC(=O)CC[C@@H]4[C@H]3CC[C@@]21CC [LN, levonorgestrel], the “AUClast, ratio (test/reference) of adjusted geometric means (90% CI)” value [1, 3] was 87.9% and 87.9 (82.7–93.4) %, the “Cmax, ratio (test/reference) of adjusted geometric means (90% CI)” value [1, 3] was 80.1% and 80.1 (73.1–87.8) % and the “Effect of ritlecitinib 50 mg QD on PK of OC steroid (in words)” value [1] was “did not produce a clinically meaningful change”. For the same compound, the “Effect of ritlecitinib 50 mg QD on PK of OC steroid (in words)” value ([1]; listed as levonorgestrel) was “did not affect”, the “AUClast, ratio (test/reference) of adjusted geometric means (90% CI)” value [2, 4] was 112.7% and 112.7 (104.2–122.0) % and the “Cmax, ratio (test/reference) of adjusted geometric means (90% CI)” value [2, 4] was 103.1% and 103.1 (97.3–109.2) %. For the same compound, the “Effect of ritlecitinib 200 mg QD on PK of OC steroid (in words)” value [2] was “not affected” and the “Effect of ritlecitinib 200 mg QD on PK of OC steroid (in words)” value ([2]; listed as levonorgestrel) was “did not affect”.
